# miR-21 reporter: miR-21 reporter, rising signal; Potency, µM (doses to about 38.3 µM); HeLa miR-21 FLuc reporter, luciferase, 48 h; 340,000 tested, under 10 active; active = well fitted rising curve with a large enough effect; inconclusive = small, poorly fitted or top-dose-only effect; inactive = no such curve, though single readings can be large or run the other way;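 further: miR-21 action dims this reporter so a rising signal means less miR-21 action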
#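 Using DMEM plus 10% FBS, HeLa miR-21-FLuc cells are incubated with test compounds (final up to about 40uM) for 48 hours; firefly luciferase signal is then imaged following reagent-mediated lysis.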
# uPA surface inh: inhibitors of cell surface uPA generation; cell surface uPA generation assay, qHTS; Potency, µM (titrated, usually from 38.3 µM), hits mostly inhibitors; 0.31% of 330,000 active; active = well fitted inhibition curve with a large enough effect; inconclusive = small, poorly fitted or top-dose-only effect; inactive = no such curve, though single readings can be large or run the other way; tested in mouse RAW 264.7 cells; also: nearly all actives have a fitted effect of over 55% in size
# TDP1 cell noCPT: qHTS for Inhibitors of human tyrosyl-DNA phosphodiesterase 1 (TDP1): qHTS in cells in absence of CPT | DT40 Tdp1-/- hTDP1 cells, no CPT, ATP luminescence, 48 h | Potency, µM (top dose mostly 46.2 µM), most hits filed as inhibitors | 15% of 420,000 active; also: nearly all actives have a fitted effect of over 55% in size
#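 Stably hTDP1-transfected Tdp1-null chicken DT40 cells were treated with library compounds minus camptothecin and grown for at least 48 hr at 37 °C, after which cellular ATP was quantified by luminescence.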
# TDP1 inh: inhibitors of human tyrosyl-DNA phosphodiesterase TDP1. Q9NUW8. recombinant TDP1, AlphaScreen DNA substrate cleavage. Potency, µM (series often up to 130 µM), actives largely listed as inhibitors. 0.28% of 350,000 active. AID 485290; also: nearly all actives have a fitted effect of over 40% in size
#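 Here, a 5' biotin and 3' phosphotyrosine-FITC DNA oligonucleotide reports Tdp1 activity: intact substrate bridges AlphaScreen beads, while cleavage leaves a 3' phosphate and drops signal. All incubations at room temperature.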
# DT40 TDP1 CPT: growth inhibition of DT40 Tdp1-/-;hTDP1 cells with camptothecin (screen for TDP1 inhibitors); chicken DT40 Tdp1-/-;hTDP1 cells + 20 nM CPT, ATP luminescence, 48 h; Potency, µM (top dose mostly 46.2 µM), most hits filed as inhibitors; 12% of 420,000 active; also: nearly all actives have a fitted effect of over 55% in size
#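 Cell growth measured by CellTiter-Glo luminescence after a minimum 48 h, 37 C compound exposure with 20 nM CPT in Tdp1-knockout DT40 cells stably expressing hTDP1, seeded 400/well; qHTS titration format.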
# Numbers stand for hits; n = inactive; u = inconclusive; x = no result. Shown are actives, neighbours in structure and some others; about 16% of the full set was active somewhere. Unless noted, calls follow the shape of the dose curve; as a rule, active = well fitted curve in the direction sought with a large enough effect; inconclusive = small, poorly fitted or top-dose-only effect, or another doubt; inactive = no such curve, though single readings can be large; an effect the other way counts as inactive or inconclusive.
SMILES,miR-21 reporter,uPA surface inh,TDP1 cell noCPT,TDP1 inh,DT40 TDP1 CPT
CN(Cc1ccccc1)S(=O)(=O)c1ccc(NC(=S)NC(=O)C2CCCCC2)cc1,u,n,15µM,n,12µM
CN(Cc1ccccc1)S(=O)(=O)c1ccc(NC(=S)NC(=O)C(C)(C)C)cc1,n,n,16µM,n,21µM
COc1cc(/C=N/NC(=O)C(=O)NCC2CCCO2)ccc1OCC(=O)N1CCOCC1 (centres undefined),n,n,n,n,n
CCCC(=O)N1CCC1(C)C(=O)Nc1ccccn1 (centres undefined),x,x,n,x,n
CCCOc1ccc(CNC(=O)c2[nH]c3cc(OC)ccc3c2Sc2ccccc2)cc1,n,x,u,n,u
COc1cccc(CNC(=O)CCC2CCCN(C(=O)c3ccc(OC)c(F)c3)C2)c1 (centres undefined),n,n,n,n,n
CCOC(=O)C1=C(N)Oc2cc(C)oc(=O)c2C1c1cccnc1 (centres undefined),n,n,n,n,n
COc1ccc(NC(=S)N2CCN(S(C)(=O)=O)CC2)cc1,n,n,n,n,n
Cc1ccc(N2C(=O)CSC2c2cccnc2)c(Cl)c1 (centres undefined),n,n,21µM,n,18µM
O=C1CSC(c2cccnc2)N1c1cccc(Cl)c1 (centres undefined),n,n,n,n,n
CC(=O)c1cccc(NC(=O)N2CCC(c3ccc(C)cc3)C2)c1 (centres undefined),n,n,u,n,u
Cc1ccc(C)c(C(=O)CN2C(=O)c3ccccc3S2(=O)=O)c1,n,n,n,n,n
CCCn1c(C)cc(C(=O)CN2C(=O)c3ccccc3S2(=O)=O)c1C,x,x,9.2µM,x,u
CCC(=O)N1CCC2(CC1)Oc1ccc(Cl)cc1C(=O)C21CC(c2ccccc2)=NO1 (centres undefined),n,n,26µM,n,u
O=C(c1ccoc1)N1CCC2(CC1)Oc1ccc(Cl)cc1C(=O)C21CC(c2ccccc2)=NO1 (centres undefined),n,n,u,n,u
COCCCNC(=O)c1ccc2c(=O)n(Cc3ccccc3OC)c(=S)[nH]c2c1,n,n,n,x,n
CCOc1ccccc1NC(=O)C1CCC(CNS(=O)(=O)c2ccc3c(c2)CCCC(=O)N3)CC1 (centres undefined),n,x,23µM,n,u
O=C1CCCc2cc(S(=O)(=O)NCC3CCC(C(=O)Nc4ccccc4F)CC3)ccc2N1 (centres undefined),n,x,u,n,u
COc1cccc(CNC(=O)C2CCC(CNS(=O)(=O)c3ccc4c(c3)CCCC(=O)N4)CC2)c1 (centres undefined),n,x,n,n,n
COc1cccc(NC(=O)C2CCC(CNS(=O)(=O)c3ccc4c(c3)CCCC(=O)N4)CC2)c1 (centres undefined),n,x,15µM,n,12µM
CCN(Cc1ccccc1)C(=O)C1CCC(CNS(=O)(=O)c2ccc3c(c2)CCCC(=O)N3)CC1 (centres undefined),n,x,16µM,n,u
O=C1c2ccccc2C(=O)N1CSc1nnc2c3ccccc3n(CCc3ccccc3)c2n1,n,n,21µM,n,u
c1ccc(CCn2c3ccccc3c3nnc(SCc4ccc5nonc5c4)nc32)cc1,n,u,16µM,n,15µM
O=C(CCNC(=O)c1ccccc1Cl)Nc1cccc(S(=O)(=O)N2CCCCC2)c1,x,n,u,n,n
COCCn1c(=O)c(-c2ccc(F)cc2)nc2cnc(OCc3ccccc3)nc21,x,x,n,x,n
SMILES,miR-21 reporter,uPA surface inh,TDP1 cell noCPT,TDP1 inh,DT40 TDP1 CPT
O=C(CN1CCCc2ccccc21)N/N=C/c1ccccc1,n,n,16µM,n,u
O=C(CN1CCCc2ccccc21)N/N=C/c1c(O)ccc2ccccc12,n,n,3.7µM,n,4.1µM
NS(=O)(=O)c1ccc(NC(=O)CN2CCCc3ccccc32)cc1,n,n,n,x,n
O=C(CN1CCCc2ccccc21)N/N=C/c1ccc(O)cc1O,n,n,16µM,n,u
CCN(CC)c1ccc(/C=N/NC(=O)CN2CCCc3ccccc32)cc1,n,n,u,n,u
NC(=O)CSc1nc(-c2ccccc2)nc2ccccc12,n,n,n,x,n
CN(C)c1ccc2nc3ccc(=O)cc-3sc2c1,x,x,1.6µM,x,1.6µM
CCOC(=O)[C@]12CCC=C1N(CCC1=CCCCC1)C(=O)[C@H](CC(=O)N1CCCC1)C2,x,x,u,x,23µM
CCOC(=O)[C@]12CCCC=C1N(CCC1=CCCCC1)C(=O)[C@H](CC(=O)N1CCCC1)C2,x,x,2.3µM,x,2.1µM
CCOC(=O)[C@]12CCCC=C1N(Cc1ccccc1)C(=O)[C@H](CC(=O)N1CCN(C(=O)C3CC3)CC1)C2,x,x,n,x,n
CCOC(=O)[C@]12CCC=C1N(CCC1=CCCCC1)C(=O)[C@H](CC(=O)N1CCCCC1)C2,x,x,13µM,x,18µM
CCOC(=O)[C@]12CCC=C1N(CCC1=CCCCC1)C(=O)[C@H](CC(=O)N1CCN(C(=O)C3CC3)CC1)C2,x,x,n,x,n
CCOC(=O)[C@]12CCCC=C1N(CCC1=CCCCC1)C(=O)[C@H](CC(=O)N1CCC(c3ccccc3)CC1)C2,x,x,15µM,x,u
CC(Oc1ccc(Cl)cc1)C(=O)Nc1cccc(S(=O)(=O)N2CCOCC2)c1 (centres undefined),x,n,n,n,u
N=C(N)c1ccc2cc(OC(=O)c3ccc(N=C(N)N)cc3)ccc2c1,x,x,n,n,n
CCOC(=O)[C@]12CCCC=C1N(CCc1ccc(OC)c(OC)c1)C(=O)[C@H](CC(=O)N1CCCC1)C2,x,x,9.2µM,x,12µM
CCc1cccc(CC)c1NC(=O)CN1CCc2cc(OC)c(OC)cc2C1,n,x,x,x,x
CCOc1cccc2sc(N3CCN(C(=O)C(C)(C)C)CC3)nc12,n,x,21µM,n,u
COc1cccc2sc(N3CCN(C(=O)c4ccco4)CC3)nc12,x,n,u,n,n
CCc1cccc2sc(N3CCN(C(=O)c4ccc([N+](=O)[O-])o4)CC3)nc12,x,7.9µM,u,n,u
CCOc1cccc2sc(N3CCN(C(=O)c4ccco4)CC3)nc12,n,x,16µM,n,15µM
CN(Cc1ccc(F)cc1)C(=O)c1cccc(OC2CCN(C3CCCC3)CC2)c1,n,n,n,n,n
CC(/C=C/c1cccc(Oc2ccc(F)cc2)c1)N(O)C(N)=O (centres undefined),x,x,u,n,u
COc1ccc(CCn2c(O)cc3nn(-c4nc5ccccc5s4)c(=O)c-3c2C)cc1,n,n,16µM,x,n
Cc1ccc(S(=O)(=O)/C=C/C#N)cc1,x,x,0.65µM,n,1.3µM
Cc1ccc(S(=O)(=O)C=CS(=O)(=O)c2ccc(C)cc2)cc1,x,x,0.73µM,x,1µM
Cc1ccc(S(=O)(=O)/C=C2\NC(=O)CS2)cc1,n,n,n,n,n
